Apparent affinities of Ab-14 variants for a coronavirus HR2 peptide

Source: Li et al. 2023 (doi:10.1038/s41467-023-39022-2), MIT Lincoln Laboratory and A-Alpha Bio; data file from the FLAb repository.

Antigen: PDVDLGDISGINAS, a 14-residue peptide of the SARS-CoV-2 spike HR2 region.

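The starting antibody came from a phage panning campaign against this peptide. Designed CDR sequences, proposed from the first random library and measured here. Several design methods are mixed in this list. The scFvs were displayed on barcoded MATa yeast, the peptide on MATalpha yeast. Pairs that bind mate more often; barcode pairs of the diploids are counted by sequencing. Read counts were normalised to the haploid input and turned into Kd by a linear fit to BCL2-family pairs of known affinity, for each replicate. There are six technical replicates.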

Ab-14 is the parent antibody, in scFv form: VH, then the linker GGGGSGGGGSGGGGS, then VL. The heavy chain is unchanged in all variants.
VH: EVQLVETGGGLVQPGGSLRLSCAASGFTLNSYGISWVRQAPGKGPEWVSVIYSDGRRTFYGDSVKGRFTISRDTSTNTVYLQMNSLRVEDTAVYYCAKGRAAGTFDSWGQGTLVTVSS
VL: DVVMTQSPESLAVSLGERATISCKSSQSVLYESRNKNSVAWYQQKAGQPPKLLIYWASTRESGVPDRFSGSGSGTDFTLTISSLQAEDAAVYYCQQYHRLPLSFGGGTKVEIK

Each variant is given by its three light chain CDRs, as the data file delimits them; those of the parent are KSSQSVLYESRNKNSVA, WASTRES, QQYHRLPLS. This list holds designs with more than six substitutions. Values are apparent Kd, the geometric mean of the replicates that gave a signal; lower means stronger binding. "nd" means that the variant was in the library but no mating with the target was seen in any replicate; the authors take this as a sign of poor binding, and no number exists. Nonspecific signal, from three strains lacking the peptide, appeared in 4% of pairings of all light chain designs, centred on 430 nM (5% of these signals below 38 nM); values are not corrected for it. Also given: how often the same scFv was detected with the empty control strains. The authors averaged sequences with at least three values out of six and counted those with two or fewer as poor binders. A sequence measured in both rounds can read differently, since the two assays cover different ranges.

The variant QLEREALWGANYDYSIA | AQDVAMP | QQYDRLPLI showed 6.3 nM (6 of 6 replicates; controls 0 of 18).
The variant KLDFSVLEESRNPNSVA | NASTREE | QDYHRLPLS showed 1.4 nM (6 of 6 replicates; controls 0 of 18).
The variant KLRMSTGYESRNKDNIA | DNSTRGR | QQYHRLPLS showed 7.7 nM (6 of 6 replicates; controls 0 of 18).
The variant KVYDPMVEWYANQSAVA | EHAEAQH | QQYDRLPLS showed 42 nM (1 of 6 replicates; controls 0 of 18).
The variant KFSQSQPYESRMFNSVA | NASLRMS | QQYHRLPLS showed 3.3 nM (6 of 6 replicates; controls 1 of 18).
The variant VMNITLQVGEQMNANVA | NAIQRFQ | QQYARLPLT showed 4.2 nM (6 of 6 replicates; controls 0 of 18).
The variant KVDQEVDGQSRNKNSVA | DASTREW | QQYHRLPLS showed 440 pM (6 of 6 replicates; controls 2 of 18).
The variant KLVNFMNRGTHHTSNIA | DAQNRCD | QQYARLPLA showed 1.5 nM (6 of 6 replicates; controls 1 of 18).
The variant TISQVMNTLSRQGNNVA | DLAERED | QQYFRLPLS showed nd (0 of 6 replicates; controls 0 of 18).
The variant KLQNSFLYESRMKNNVA | EASQREM | QQYHRLPLS showed 1.7 nM (6 of 6 replicates; controls 0 of 18).
The variant IVSQVMLWGLHAKNSIA | EAQTRIN | QQYDRLPLF showed 160 nM (5 of 6 replicates; controls 0 of 18).
The variant MFSQLMEYGSRYKNSVA | QASTREE | QQYHWLPLS showed 16 nM (6 of 6 replicates; controls 1 of 18).
The variant KISMMVGTKGGARNSVA | NEQTRYD | QQYHRLPLS showed 4.8 nM (6 of 6 replicates; controls 0 of 18).
The variant KVSHVQDVHTRNVNSVA | QMDTREE | QDYNRLPLS showed 14 nM (6 of 6 replicates; controls 0 of 18).
The variant KLVGVDDNDPNPSHNIA | DVSTLDN | QQYHRLPLD showed 4.0 nM (6 of 6 replicates; controls 2 of 18).
The variant FLGYQQDGNGLQRQAVA | NVNMKEY | QQYGRLPLM showed 14 nM (6 of 6 replicates; controls 0 of 18).
The variant MISQLYNMGSFAINSVA | QASLRND | QQYDRLPLM showed 2.4 nM (6 of 6 replicates; controls 1 of 18).
The variant HMRHEFYGYDNYDQAVA | HANQRLN | QQYSRLPFS showed 5.5 nM (6 of 6 replicates; controls 0 of 18).
The variant NMSDSQERMASILRNIA | DQTTRAM | QQYARLPLS showed 600 nM (1 of 6 replicates; controls 0 of 18).
The variant SLYEMSYELSGKTHSVA | DNSTRGD | QQYFRLPLD showed 41 nM (6 of 6 replicates; controls 1 of 18).
The variant TLSQSWGMESHHRNNVA | QESTREK | QQYFRLPIS showed 5.1 nM (6 of 6 replicates; controls 1 of 18).
The variant KISQMVKVGITHNNSIA | EEVTRAK | QQYHRLPLA showed 270 nM (4 of 6 replicates; controls 2 of 18).
The variant MLGGNLMHEMMAKNNVA | HMTTRVE | QQYHRLPLI showed 110 nM (6 of 6 replicates; controls 0 of 18).
The variant KLQQSWEYESRNSNNVA | MGSTRED | QQYHRLPLS showed 480 pM (6 of 6 replicates; controls 1 of 18).
The variant MLPESMPQQIDNKNPVA | GAQHTAV | QQYDRLPLT showed 55 nM (6 of 6 replicates; controls 0 of 18).
The variant NLSMELEDMGVKTKSIA | ENQLTEY | QQYARLPLM showed 39 nM (6 of 6 replicates; controls 0 of 18).
The variant SITQLVGWGSRNKNSVA | QMETREN | QQYDRLPLS showed 2.6 nM (6 of 6 replicates; controls 0 of 18).
The variant HVSEMIFAQSKMRNSVA | ENNTREA | QQYDRLPLS showed 100 nM (1 of 6 replicates; controls 0 of 18).
The variant KLGSTVGYESRNKSRVA | DNSTRES | QQYDRLPLS showed 280 nM (2 of 6 replicates; controls 0 of 18).
The variant LLSQSVLLESRNWNAVA | MASTRMD | QQYHRLPLS showed 3.9 nM (6 of 6 replicates; controls 1 of 18).
The variant KLSQSMSYEWRNCNNVA | NASQRLS | QQYHRLPLS showed 5.2 nM (6 of 6 replicates; controls 1 of 18).
The variant TISTSAMYESTNKNSVA | ELTTRGS | QQYERLPLS showed 540 nM (2 of 6 replicates; controls 0 of 18).
The variant SLVQEKSVGDYNAGNVA | AGNQLSV | QQYNRLPLS showed 800 pM (6 of 6 replicates; controls 1 of 18).
The variant KFVMSWGYESRNKNAVA | HASQRCS | QQYHRLPLS showed 9.1 nM (6 of 6 replicates; controls 0 of 18).
The variant KLYMSTAMTSRMKNNVA | DLNERER | QQYFRLPLS showed 7.3 nM (6 of 6 replicates; controls 0 of 18).
The variant QLEFYDVQGTAKWHAIA | EGSQLGQ | QQYFHLPLG showed 6.4 nM (2 of 6 replicates; controls 0 of 18).
The variant NFSMSAAAFVNEDSSIA | DAEISYD | QQYHRLPLV showed 79 nM (6 of 6 replicates; controls 0 of 18).
The variant KISQLVNFEGKQKNSVA | QMSTRES | QQYDRLPLS showed 850 pM (6 of 6 replicates; controls 0 of 18).
The variant TISMMVGTKGYNKNSVA | NAETRED | QQYHRLPLS showed 15 nM (6 of 6 replicates; controls 1 of 18).
The variant KLYSITGTEKVHGNNVA | EMETRER | QQYNRLPLA showed 1.6 nM (6 of 6 replicates; controls 0 of 18).
The variant IFSQSVLMGMHTKNSVA | QATMRFN | QQYERLPFM showed 9.4 nM (6 of 6 replicates; controls 0 of 18).
The variant LLYDSVGTLSRNKNSVA | DNSTRES | QQYDRLPLS showed 250 nM (2 of 6 replicates; controls 0 of 18).
The variant TISNSFMMENQFKNSVA | QVSTRES | QCYDRLPLS showed 4.4 nM (6 of 6 replicates; controls 2 of 18).

The closing 5 entries, repeated:

{"CDR-L1": "TISMMVGTKGYNKNSVA", "CDR-L2": "NAETRED", "CDR-L3": "QQYHRLPLS", "Kd (apparent)": "15 nM", "seen in": "6 of 6", "signal with controls": "1 of 18"}
{"CDR-L1": "KLYSITGTEKVHGNNVA", "CDR-L2": "EMETRER", "CDR-L3": "QQYNRLPLA", "Kd (apparent)": "1.6 nM", "seen in": "6 of 6", "signal with controls": "0 of 18"}
{"CDR-L1": "IFSQSVLMGMHTKNSVA", "CDR-L2": "QATMRFN", "CDR-L3": "QQYERLPFM", "Kd (apparent)": "9.4 nM", "seen in": "6 of 6", "signal with controls": "0 of 18"}
{"CDR-L1": "LLYDSVGTLSRNKNSVA", "CDR-L2": "DNSTRES", "CDR-L3": "QQYDRLPLS", "Kd (apparent)": "250 nM", "seen in": "2 of 6", "signal with controls": "0 of 18"}
{"CDR-L1": "TISNSFMMENQFKNSVA", "CDR-L2": "QVSTRES", "CDR-L3": "QCYDRLPLS", "Kd (apparent)": "4.4 nM", "seen in": "6 of 6", "signal with controls": "2 of 18"}